Source: PubChem BioAssay
NALP1 yeast inh – NALP1 inhibition. inhibition, % at 10 µM. S. cerevisiae NALP1/ASC/caspase-1 growth, X-gal OD620, 72 h. actives 0.61% (n = 280,000); in the data active = inhibition mostly above about 24%, no sharp cut-off; inactive = mostly below about 32%
ALR inh – human ALR oxidase inhibition via reduced H2O2. 290,000 tested, 3.8% active. AID 485317. purified ALR, DTT oxidation, H2O2 HRP-luminol luminescence. inhibition, % (test concentration not listed). P55789;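 active = mean and each replicate at 75% or more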;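 also: stock transfer was 7.5 nL into about 7.5 µL; 0% = neutral wells and 100% = wells with inactivated enzyme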
Yeast UUG start – modulators of start codon recognition fidelity in yeast; AID 602363; activity score, % at 18.7 µM; S. cerevisiae UUG-firefly luciferase reporter, luminescence/redox ratio; 0.13% of 350,000 active;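 active = replicate mean at a twofold rise or more, about +100% in these data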;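 note: firefly luciferase made from a UUG start codon reports start codon fidelity; reporter light over untreated wells divided by growth signal over untreated wells; some hits fall short of that in this replicate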
MC4R antagonist – antagonists of human melanocortin 4 receptor (MC4R); MC4R-expressing cells, MTII-stimulated cAMP, LANCE TR-FRET; inhibition, % at 6.5 µM; actives 0.48% (n = 360,000); AID 540295;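 active = inhibition above its plate's cutoff, the mean of tested wells on that plate plus 3 SD, cut at about 29% in these data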;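 note: 0% = Melanotan II alone and 100% = Melanotan II plus saturating MCL0020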
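Material – human MC4R-expressing U2OS cells · Repeats – no replicates · Detection – TR-FRET with Eu-cAMP and labeled anti-cAMP, 671 nm · Times – compound 30 min, challenge 1 h, detection 1 h · Compound – single nominal compound dose of 6.5 µM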
HDAC3 inh – inhibitors of human histone deacetylase 3; inhibition, % at 8.3 µM; AID 2718; recombinant HDAC3, fluorogenic peptide/trypsin coupled, fluorescence; actives 0.15% (n = 320,000); O15379; in the data active = inhibition above about 26%, passing the limit was not always enough
MC4R barr agon – human MC4R agonism via beta-arrestin | AID 540308 | U2OS MC4R beta-arrestin complementation, luminescence; percent of melanotan II response, DMSO zero | activation, % at 8.9 µM | actives 0.98% (n = 360,000) | P32245;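 active = activation above a per-plate cutoff, the mean activation of sample wells on that plate plus 3 SD, cut at about 8% in these data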
An asterisk follows results filed as active; nt = not tested or not shown. Compounds with a hit are over-represented: about 4.2% of the library has one in this group of screens.

The opening 4 records, ahead of the listing:
1. Cc1ccc(NC(=O)COC(=O)Cc2c[nH]c3ccccc23)cc1
2. O=C(CCc1c[nH]c2ccccc12)NCCc1ccccc1
3. O=C(CCc1c[nH]c2ccccc12)NCCc1ccc(O)cc1
4. CC(=O)Nc1ccc(NC(=O)COC(=O)Cc2c[nH]c3ccccc23)cc1

screen / no.	1	2	3	4
NALP1 yeast inh	nt	7	4	21
ALR inh	nt	0	85*	83*
Yeast UUG start	5	-12	-2	-12
MC4R antagonist	1	6	10	4
HDAC3 inh	nt	0	-7	8
MC4R barr agon	0	-2	0	0

All compounds of this part, from the first entry:
1. Cc1ccc(NC(=O)COC(=O)Cc2c[nH]c3ccccc23)cc1
2. O=C(CCc1c[nH]c2ccccc12)NCCc1ccccc1
3. O=C(CCc1c[nH]c2ccccc12)NCCc1ccc(O)cc1
4. CC(=O)Nc1ccc(NC(=O)COC(=O)Cc2c[nH]c3ccccc23)cc1
5. CC(C)(C)C1CCc2sc(C(=O)NNC(=O)CCl)cc2C1 (stereo unspecified)
6. CC(C)(C)C1CCC(=NNC(=O)c2cc3c(s2)CCCC3)CC1 (stereo unspecified)
7. COc1ccc2nc(NNC(=O)C3COc4ccccc4O3)sc2c1 (stereo unspecified)
8. COc1ccc2nc(NC(=O)C3COc4ccccc4O3)sc2c1 (stereo unspecified)

screen / no.	1	2	3	4	5	6	7	8
NALP1 yeast inh	nt	7	4	21	-41	16	20	26
ALR inh	nt	0	85*	83*	nt	3	99*	nt
Yeast UUG start	5	-12	-2	-12	-22	-11	-11	-38
MC4R antagonist	1	6	10	4	11	5	6	0
HDAC3 inh	nt	0	-7	8	nt	9	3	-2
MC4R barr agon	0	-2	0	0	19*	0	0	-1

9. O=c1c(Cl)c(NCc2ccccc2Cl)cnn1C12CC3CC(CC(C3)C1)C2
10. Cc1nnn(C23C[C@@H]4C[C@@H](CC(C(=O)N5CCN(c6ccccc6)CC5)(C4)C2)C3)n1
11. O=C(O)CC12CC3CC(C1)CC(n1ncc(NCc4ccccc4)c(Cl)c1=O)(C3)C2
12. O=C(O)CC12C[C@H]3C[C@@H](C1)CC(n1ncc(N4CCN(c5ccccc5)CC4)c(Cl)c1=O)(C3)C2
13. O=c1c(Cl)c(N2CCN(c3ccccc3)CC2)cnn1C12CC3CC(CC(C3)C1)C2
14. O=C(O)C12C[C@H]3C[C@@H](C1)CC(n1ncc(N4CCN(c5ccccc5)CC4)c(Cl)c1=O)(C3)C2
15. CC(C)CC#Cc1cnc2c(c1)C(=O)N([C@@H](C)CO)C[C@@H](C)[C@H](CN(C)C(=O)NC1CCCC1)O2
16. C[C@@H]1CN([C@H](C)CO)C(=O)c2cc(C#CC3CCCCC3)cnc2O[C@H]1CN(C)S(C)(=O)=O

screen / no.	9	10	11	12	13	14	15	16
NALP1 yeast inh	26	3	8	6	5	4	nt	nt
ALR inh	-6	50	-4	98*	86*	98*	nt	nt
Yeast UUG start	nt	9	-2	-19	-5	nt	5	20
MC4R antagonist	1	13	-2	-1	5	-2	nt	nt
HDAC3 inh	12	9	0	3	2	-2	nt	nt
MC4R barr agon	3	-3	2	0	-1	0	nt	nt

17. O=C(O)COc1ccc(C(=O)c2ccccc2)cc1
18. O=C(O)COc1ccccc1-c1nc(-c2ccccc2)c(-c2ccccc2)[nH]1
19. O=C(O)COc1ccc(-c2nc(-c3ccccc3)c(-c3ccccc3)[nH]2)cc1
20. COc1cccc(-c2nc(-c3ccccc3)c(-c3ccccc3)[nH]2)c1OCC(=O)O
21. C[C@@H]1CN([C@H](C)CO)C(=O)c2cc(NC(=O)c3ccncc3)ccc2O[C@@H](C)CCCCO[C@H]1CN(C)S(=O)(=O)c1cccs1
22. COc1cccc(/C=C2\SC(N3CCCC(C)C3)=NC2=O)c1OC (stereo unspecified)
23. O=C(O)CSc1c2c(nc3cc(C(=O)Nc4cccc(C(F)(F)F)c4)ccc13)CCC2
24. COc1ccc(C)cc1NC(=O)c1ccc2c(SCC(=O)O)c3c(nc2c1)CCCC3

screen / no.	17	18	19	20	21	22	23	24
NALP1 yeast inh	6	-10	8	5	nt	11	13	nt
ALR inh	-3	98*	99*	5	nt	97*	96*	0
Yeast UUG start	0	3	-21	1	-7	-5	-2	nt
MC4R antagonist	9	25	13	9	nt	12	16	-4
HDAC3 inh	-3	-61	-47	-56	nt	-8	5	-13
MC4R barr agon	-2	1	-1	-1	nt	-1	-2	2

25. Cc1ccc(NC(=O)c2ccc3c(SCC(=O)O)c4c(nc3c2)CCCC4)c(Br)c1
26. O=C(NCc1ccc2c(c1)OCO2)c1nc(S(=O)(=O)Cc2ccccc2)ncc1Cl
27. O=C(NCc1ccc2c(c1)OCO2)c1nc(S(=O)(=O)Cc2ccccc2F)ncc1Cl
28. O=C(CC(F)(F)F)N1C[C@@H]2[C@H](c3ccccc31)[C@@H](CO)N2C(=O)c1cccnc1
29. Cc1cc(N2CCOCC2)nc(-c2ccc([N+](=O)[O-])cc2)n1
30. C/C=C/c1cnc2c(c1)C(=O)N([C@@H](C)CO)C[C@@H](C)[C@@H](CN(C)Cc1ccccc1)O2
31. CCC(O)CC(C(=O)NNc1ccccc1)C(=O)NNc1ccccc1 (stereo unspecified)
32. CCOC(=O)NNc1ccccc1

screen / no.	25	26	27	28	29	30	31	32
NALP1 yeast inh	25	2	7	nt	2	nt	12	11
ALR inh	90*	99*	3	nt	100*	nt	99*	-9
Yeast UUG start	-19	5	-2	27	-5	-5	nt	nt
MC4R antagonist	10	1	0	nt	-12	nt	8	7
HDAC3 inh	-2	nt	5	nt	3	nt	1	-2
MC4R barr agon	-3	-6	-6	nt	-2	nt	-2	2

33. COc1cccc(N/C(SCc2cccc([N+](=O)[O-])c2)=C(/C#N)C(N)=O)c1
34. COc1cccc(NC(=O)CC(=O)c2ccc([N+](=O)[O-])cc2)c1
35. O=C(Nc1ccc(O)cc1)c1cccc(Oc2ccc([N+](=O)[O-])cc2)c1
36. O=C(O)c1cccc(Oc2ccc([N+](=O)[O-])cc2)c1
37. Cc1ccc(NC(=O)c2cccc(Oc3ccc([N+](=O)[O-])cc3)c2)c(C(=O)O)c1
38. Nc1ccccc1C#Cc1ccc2[nH]ccc2c1
39. Cc1ccc(C(C(=O)NC2CCCCC2)N2CCCC2)cc1 (stereo unspecified)
40. CCOC(=O)C1CCN(C(C(=O)NC2CCCC2)c2ccc(C)cc2)CC1 (stereo unspecified)

screen / no.	33	34	35	36	37	38	39	40
NALP1 yeast inh	12	1	9	3	-6	nt	24	36*
ALR inh	99*	-6	99*	1	97*	97*	-5	nt
Yeast UUG start	nt	-27	nt	-3	-3	-9	-9	-7
MC4R antagonist	2	0	7	-6	11	4	-4	14
HDAC3 inh	-6	2	5	-10	6	-16	0	0
MC4R barr agon	-2	-2	-2	-3	0	-2	-1	0

41. O=C(C[C@@H]1C=C[C@H](NC(=O)Nc2ccccc2)[C@@H](CO)O1)NCc1cccc(F)c1
42. O=C(/C=C/c1ccc(O)c(O)c1)OCCc1ccccc1
43. O=C(/C=C/c1ccc(O)c(O)c1)c1ccccc1O
44. N[C@@H](Cc1ccc(O)c(I)c1)C(=O)O
45. O=C(/C=C/c1ccc(F)cc1)c1ccccc1Br
46. O=C(/C=C/c1ccc(O)c(O)c1)OC(Cc1ccc(O)c(O)c1)C(=O)O (stereo unspecified)
47. COc1ccc(S(=O)(=O)N[C@@H]2C=C[C@H](CC(=O)NCc3ccccc3F)O[C@@H]2CO)cc1

screen / no.	41	42	43	44	45	46	47
NALP1 yeast inh	nt	nt	-18	12	55*	4	nt
ALR inh	nt	98*	100*	-3	nt	99*	nt
Yeast UUG start	-9	-19	-20	nt	nt	-15	-23
MC4R antagonist	nt	8	13	nt	2	13	nt
HDAC3 inh	nt	13	11	-3	4	8	nt
MC4R barr agon	nt	-1	-2	nt	1	0	nt
